Measured values from ChEMBL document CHEMBL1123058, “Synthesis of some quaternary ammonium alkylating agents and their effects on soman-inhibited acetylcholinesterase” (1985).

Experiment: Ratio of control/treated value of the compound

**Q.** For BrCCCCCC[n+]1ccccc1, which Ratio is on record?
**A.** Its Ratio is 0.98.

**Q.** Which Ratio does the source give for CC[N+](C)(CC)CCc1ccccn1 here?
**A.** The Ratio was 1.6.

**Q.** Which Ratio does the source give for CC1C=CN(C)c2c1c1c(n2C)CCC1OCCCl (stereo unspecified) here?
**A.** Its Ratio is 0.81.

**Q.** With C[n+]1ccccc1CCN1C(=O)CCC1=O as the molecule, how does the Ratio read?
**A.** Its Ratio is 1.13.

**Q.** For C[n+]1ccc(CCN2C(=O)CCC2=O)cc1, which Ratio is on record?
**A.** The Ratio was 1.02.

**Q.** Which Ratio does the source give for CC[N+](C)(CC)CCc1ccncc1 here?
**A.** The Ratio was under 2.09.

**Q.** Which Ratio does the source give for CCN(CC)CCc1cccc[n+]1C here?
**A.** Its Ratio is 1.07.

**Q.** For C[n+]1ccccc1CCl, which Ratio is on record?
**A.** Its Ratio is under 1.3.

**Q.** For CC[N+](C)(CC)CC(=O)CCN1C(=O)CCC1=O, which Ratio is on record?
**A.** The Ratio was 1.11.

**Q.** With C[N+](C)(C)CCCCl as the molecule, how does the Ratio read?
**A.** The Ratio was 1.19.

**Q.** Which Ratio does the source give for C[n+]1ccccc1CCC(O)CCl (stereo unspecified) here?
**A.** Its Ratio is under 1.34.
